In patent publication US12551478B2, “Quinoline derivative having indoleamine-2,3-dioxygenase inhibitory activity” (SHENZHEN CHIPSCREEN BIOSCIENCES CO., LTD., priority 2018, dated 2026) one finds EC50 data, which are given here for one molecule.

Protein sequences, listed by entry. Tags and fused reporters are not part of them.
UniProt Q12809, whole entry: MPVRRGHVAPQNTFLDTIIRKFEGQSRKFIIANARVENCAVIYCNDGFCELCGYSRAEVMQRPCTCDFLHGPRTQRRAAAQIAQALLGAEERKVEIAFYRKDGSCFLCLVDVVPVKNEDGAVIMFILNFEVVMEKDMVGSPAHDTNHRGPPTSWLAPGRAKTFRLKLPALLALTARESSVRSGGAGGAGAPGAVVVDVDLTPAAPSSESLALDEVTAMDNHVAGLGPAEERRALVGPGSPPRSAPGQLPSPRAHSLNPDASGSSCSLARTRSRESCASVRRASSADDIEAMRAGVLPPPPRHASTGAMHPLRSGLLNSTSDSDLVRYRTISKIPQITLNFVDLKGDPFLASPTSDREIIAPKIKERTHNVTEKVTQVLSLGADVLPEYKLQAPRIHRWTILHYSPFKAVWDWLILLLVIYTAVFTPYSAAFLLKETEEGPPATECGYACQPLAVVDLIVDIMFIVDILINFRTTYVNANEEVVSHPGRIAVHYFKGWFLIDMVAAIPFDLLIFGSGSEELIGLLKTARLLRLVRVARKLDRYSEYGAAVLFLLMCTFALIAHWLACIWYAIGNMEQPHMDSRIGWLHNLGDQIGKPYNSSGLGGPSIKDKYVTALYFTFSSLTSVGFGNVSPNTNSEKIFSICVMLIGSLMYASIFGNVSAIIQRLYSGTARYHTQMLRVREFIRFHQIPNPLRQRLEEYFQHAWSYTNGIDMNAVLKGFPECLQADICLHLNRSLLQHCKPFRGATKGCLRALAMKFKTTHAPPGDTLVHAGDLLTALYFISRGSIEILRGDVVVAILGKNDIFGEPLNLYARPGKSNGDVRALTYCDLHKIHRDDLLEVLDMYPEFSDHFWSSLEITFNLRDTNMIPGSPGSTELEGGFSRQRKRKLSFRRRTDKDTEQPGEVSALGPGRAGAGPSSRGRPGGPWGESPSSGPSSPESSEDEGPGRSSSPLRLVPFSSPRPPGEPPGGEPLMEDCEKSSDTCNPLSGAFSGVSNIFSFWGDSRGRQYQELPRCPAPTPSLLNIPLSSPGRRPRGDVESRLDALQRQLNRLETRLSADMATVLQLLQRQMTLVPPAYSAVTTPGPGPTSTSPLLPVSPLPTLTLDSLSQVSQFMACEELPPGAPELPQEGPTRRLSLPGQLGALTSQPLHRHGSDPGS

The target in this data set is hERG potassium channel (Homo sapiens, UniProt Q12809). The experiment in a line: hERG inhibitory activity assay (patch clamp method), HEK293 cells stably expressing hERG. The settings on record: read-out: hERG inhibition EC50 value; whole-cell patch clamp, HEK293, 0.3-30 μM, room temperature. An excerpt:
Non-cardiac drugs may cause the prolongation of myocardial action potential duration by inhibiting the hERG (IKr) channel, increasing the possibility of life-threatening torsade de pointes (TdP) ventricular arrhythmia. In this experiment, HEK293 cell line without endogenous IKr current was used as host cell (this cell line was widely used in the detection of hERG) to evaluate the cardiotoxicity of Example 85 in patent CN108203438A and Example 87 of the present application.
(1) HEK293 cell line stably expressing hERG potassium channel was cultured in DMEM medium containing 10% fetal bovine serum and 0.8 mg/mL G418 under the condition of 37° C. and 5% CO2. […]
A capillary glass tube was drawn into a recording electrode with a microelectrode puller. […] Then, slow capacitance compensation was performed, and the membrane capacitance and series resistance were recorded. […]
When the hERG current of the whole-cell recording was stabilized, the drug was administered. […] The current detected for each cell in the compound-free extracellular fluid was used as its own control group. […]
[formula] and then the inhibition rate corresponding to each concentration was calculated
[formula] For each concentration, mean number and standard error were calculated, and the following equation was used to calculate the half inhibitory concentration of each compound: […]
On the technique in general: The hERG channel carries a current that helps repolarise heart muscle cells.

Take `O=C(CNc1ccccc1)N1CCC(C(O)CC2c3ccccc3-c3cncn32)CC1` (stereo not shown): the EC50 (usually the concentration at which the effect is half-maximal) was 1900 nM.
